Cyclic peptide permeability, from CycPeptMPDB

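The data file gives no further conditions (lipid, pH, time, direction or concentration), and values from different papers need not be comparable. The list need not hold all peptides of the study. Entries at the database's floor value (log10 P of -10) are not listed.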

PAMPA measures passive passage through an artificial lipid membrane. Values are log10 P with P in cm/s, so -5 is more permeable than -7.

| PAMPA (log10 cm/s) | SMILES |
|---|---|
| -5.89 | CCCN1CC(=O)N[C@@H](CC(C)C)C(=O)N[C@H](CC(C)C)C(=O)N2CCC[C@H]2C(=O)N[C@H](CC(C)C)C(=O)N[C@@H](Cc2ccccc2)C(=O)N2CCC[C@H]2C1=O |
| -5.31 | CC(C)C[C@@H]1C(=O)N(Cc2ccccc2)CC(=O)N2CCC[C@@H]2C(=O)N(Cc2ccccc2)CC(=O)N[C@@H](Cc2ccccc2)C(=O)N(C)[C@H](C)C(=O)N1C |
| -5.25 | CC(C)C[C@H]1NC(=O)[C@@H](C)N(C)C(=O)[C@H](Cc2ccccc2)NC(=O)CN(Cc2ccccc2)C(=O)[C@H]2CCCN2C(=O)[C@H](CC(C)C)N(C)C1=O |
| -5.56 | CC(C)C[C@@H]1C(=O)N(Cc2ccccc2)CC(=O)N2CCC[C@H]2C(=O)N(C)[C@@H](CC(C)C)C(=O)N[C@@H](Cc2ccccc2)C(=O)N2CCC[C@@H]2C(=O)N[C@@H](C)C(=O)N1C |
| -5.87 | CC(C)C[C@@H]1NC(=O)[C@@H](C)NC(=O)[C@H](Cc2ccccc2)NC(=O)[C@H](CC(C)C)N(C)C(=O)[C@@H]2CCCN2C(=O)[C@@H](CC(C)C)NC1=O |
| -6.31 | CC(C)C[C@@H]1NC(=O)C[C@H](Cc2ccccc2)NC(=O)[C@H]2CCCN2C(=O)[C@H](Cc2ccccc2)NC(=O)[C@H](CC(C)C)N(C)C(=O)[C@H]2CCCN2C(=O)[C@@H](CC(C)C)NC1=O |
| -5.37 | CC(C)C[C@@H]1NC(=O)[C@@H](CC(C)C)N(C)C(=O)C[C@H](Cc2ccccc2)NC(=O)[C@H](Cc2ccccc2)NC(=O)[C@@H](CC(C)C)NC(=O)[C@@H]2CCCN2C1=O |
| -5.01 | CCCN1CC(=O)N[C@H](CC(C)C)C(=O)N[C@@H](CC(C)C)C(=O)N2CCC[C@@H]2C(=O)N(Cc2ccccc2)CC(=O)N[C@@H](Cc2ccccc2)C1=O |
| -5.28 | CC(C)C[C@@H]1C(=O)N2CCC[C@H]2C(=O)N(C)[C@@H](CC(C)C)C(=O)N[C@@H](Cc2ccccc2)C(=O)N[C@H](C)C(=O)N(C)[C@@H](CC(C)C)C(=O)N1C |
| -7.30 | CC(C)C[C@@H]1NC(=O)[C@@H](C)NC(=O)[C@@H]2CCCN2C(=O)[C@H](Cc2ccccc2)NC(=O)CN(Cc2ccccc2)C(=O)[C@@H]2CCCN2C(=O)[C@@H](CC(C)C)NC1=O |
| -6.00 | CC(C)C[C@@H]1NC(=O)[C@H]2CCCN2C(=O)[C@@H](CC(C)C)N(C)C(=O)[C@H](CC(C)C)NC(=O)C[C@H](Cc2ccccc2)NC(=O)[C@H]2CCCN2C(=O)[C@H](Cc2ccccc2)NC1=O |
| -5.68 | CC(C)C[C@@H]1C(=O)N[C@@H](Cc2ccccc2)C(=O)N2CCC[C@H]2C(=O)N[C@@H](Cc2ccccc2)CC(=O)N[C@H](CC(C)C)C(=O)N[C@H](CC(C)C)C(=O)N2CCC[C@H]2C(=O)N1C |
| -6.21 | CCCN1CC(=O)N(C)[C@@H](CC(C)C)C(=O)N(C)[C@@H](CC(C)C)C(=O)N2CCC[C@@H]2C(=O)N[C@@H](CC(C)C)C(=O)N[C@@H](Cc2ccccc2)C(=O)N2CCC[C@H]2C1=O |
| -5.06 | CC(C)C[C@@H]1C(=O)N[C@@H](Cc2ccccc2)C(=O)N2CCC[C@H]2C(=O)N[C@@H](C)C(=O)N(C)[C@@H](CC(C)C)C(=O)N[C@H](CC(C)C)C(=O)N2CCC[C@H]2C(=O)N1C |

The 2 highest values of PAMPA among the entries above:

| SMILES | PAMPA (log10 cm/s) |
|---|---|
| CCCN1CC(=O)N[C@H](CC(C)C)C(=O)N[C@@H](CC(C)C)C(=O)N2CCC[C@@H]2C(=O)N(Cc2ccccc2)CC(=O)N[C@@H](Cc2ccccc2)C1=O | -5.01 |
| CC(C)C[C@@H]1C(=O)N[C@@H](Cc2ccccc2)C(=O)N2CCC[C@H]2C(=O)N[C@@H](C)C(=O)N(C)[C@@H](CC(C)C)C(=O)N[C@H](CC(C)C)C(=O)N2CCC[C@H]2C(=O)N1C | -5.06 |

Values of Townsend et al. 2020, doi:10.26434/chemrxiv.13335941.v1, as listed in CycPeptMPDB.